Legend:
memory CD8+ T cells [1] = assay type: cell-based, human
memory CD8+ T cells [2] = assay type: cell-based, human; remark: listed apart in the source

Q: With IPRRNVATLQ as the sequence, how does the “# of patients enriching epitope >1.5 (moderate stringency)” value (memory CD8+ T cells [1]) read?
A: Its value is 1.

Q: And the “# of patients enriching epitope >5 (high stringency)” value (memory CD8+ T cells [1])?
A: The value was 0.

Q: And the “enrichment of epitope in T-Scan screen, patient B07_01-01-022” value (memory CD8+ T cells [1])?
A: The value was 0.13.

Q: And the “enrichment of epitope in T-Scan screen, patient B0702_01-01-021” value (memory CD8+ T cells [1])?
A: The value was 0.56.

Q: And the “enrichment of epitope in T-Scan screen, patient B0702_01-01-030” value (memory CD8+ T cells [1])?
A: Its value is 1.30.

Q: And the “enrichment of epitope in T-Scan screen, patient B0702_01-02-002” value (memory CD8+ T cells [1])?
A: The value was 3.83.

Q: And the “enrichment of epitope in T-Scan screen, patient B0702_01-02-004” value (memory CD8+ T cells [1])?
A: Its value is 0.86.

Q: For LLYDANYFL [compound 3], which “% of Pts (Tetramer)” value (memory CD8+ T cells [2]) is on record?
A: Its value is 55.5%.

Q: For NLVPMVATV [reference compound], which “reactivity to control epitope in the screen” value (memory CD8+ T cells [1]) is on record?
A: The value was “detected”.

Q: What does the source list for KCYGVSPTK?
A: # of patients enriching epitope >1.5 (moderate stringency) (memory CD8+ T cells [1]): 5; # of patients enriching epitope >5 (high stringency) (memory CD8+ T cells [1]): 3; A03_01-01-006 (memory CD8+ T cells [1]): 12.94; A03_01-01-008 (memory CD8+ T cells [1]): 9.24; A03_01-02-002 (memory CD8+ T cells [1]): 12.60; A03_01-02-004 (memory CD8+ T cells [1]): 2.17; A03_01-02-010 (memory CD8+ T cells [1]): 3.05

Q: For LLLDRLNQL [compound 5], which “% of Pts (Screen)” value (memory CD8+ T cells [1]) is on record?
A: Its value is 33.3%.

Q: Which “% of Pts (Screen)” value (memory CD8+ T cells [1]) does the source give for DTDFVNEFY [compound 13] here?
A: The value was 40%.

Q: QLPQGTTLPK was tested. Which “# of patients enriching epitope >1.5 (moderate stringency)” value (memory CD8+ T cells [1]) did it give?
A: Its value is 2.

Q: What about the “# of patients enriching epitope >5 (high stringency)” value (memory CD8+ T cells [1]) of the same sequence?
A: The value was 0.

Q: What about the A03_01-01-006 (memory CD8+ T cells [1]) of the same sequence?
A: Its A03_01-01-006 is 1.16.

Q: And the A03_01-01-008 (memory CD8+ T cells [1])?
A: Its A03_01-01-008 is 1.57.

Q: And the A03_01-02-002 (memory CD8+ T cells [1])?
A: The A03_01-02-002 was 1.14.

Q: What about the A03_01-02-004 (memory CD8+ T cells [1]) of the same sequence?
A: The A03_01-02-004 was 1.96.

Q: And the A03_01-02-010 (memory CD8+ T cells [1])?
A: Its A03_01-02-010 is 1.35.

Q: What does the source list for QIAPGQTGK?
A: # of patients enriching epitope >1.5 (moderate stringency) (memory CD8+ T cells [1]): 4; # of patients enriching epitope >5 (high stringency) (memory CD8+ T cells [1]): 3; A03_01-01-006 (memory CD8+ T cells [1]): 5.98; A03_01-01-008 (memory CD8+ T cells [1]): 5.07; A03_01-02-002 (memory CD8+ T cells [1]): 7.06; A03_01-02-004 (memory CD8+ T cells [1]): 1.46; A03_01-02-010 (memory CD8+ T cells [1]): 1.78

Q: How did the “# of patients enriching epitope >1.5 (moderate stringency)” value (memory CD8+ T cells [1]) turn out when TACTDDNALAYY was run?
A: The value was 5.

Q: And the “# of patients enriching epitope >5 (high stringency)” value (memory CD8+ T cells [1])?
A: Its value is 1.

Q: And the A01-01-01-030 (memory CD8+ T cells [1])?
A: Its A01-01-01-030 is 6.71.

Q: What about the A01-01-02-019 (memory CD8+ T cells [1]) of the same sequence?
A: Its A01-01-02-019 is 4.08.

Q: And the A0101_01-01-003 (memory CD8+ T cells [1])?
A: Its A0101_01-01-003 is 4.00.

Q: What about the A0101_01-01-007 (memory CD8+ T cells [1]) of the same sequence?
A: The A0101_01-01-007 was 1.55.

Q: What about the A0101_01-01-009 (memory CD8+ T cells [1]) of the same sequence?
A: Its A0101_01-01-009 is 3.23.

Q: With ATSRTLSYYK [compound 23] as the sequence, how does the “% of Pts (Screen)” value (memory CD8+ T cells [1]) read?
A: Its value is 60%.

Q: Which results are given for CVADYSVLY?
A: # of patients enriching epitope >1.5 (moderate stringency) (memory CD8+ T cells [1]): 5; # of patients enriching epitope >5 (high stringency) (memory CD8+ T cells [1]): 3; A03_01-01-006 (memory CD8+ T cells [1]): 7.82; A03_01-01-008 (memory CD8+ T cells [1]): 5.13; A03_01-02-002 (memory CD8+ T cells [1]): 7.38; A03_01-02-004 (memory CD8+ T cells [1]): 1.67; A03_01-02-010 (memory CD8+ T cells [1]): 2.03

Q: With ACTDDNALAYY as the sequence, how does the “# of patients enriching epitope >1.5 (moderate stringency)” value (memory CD8+ T cells [1]) read?
A: The value was 5.

Q: What about the “# of patients enriching epitope >5 (high stringency)” value (memory CD8+ T cells [1]) of the same sequence?
A: Its value is 1.

Q: And the A01-01-01-030 (memory CD8+ T cells [1])?
A: The A01-01-01-030 was 6.71.

Q: And the A01-01-02-019 (memory CD8+ T cells [1])?
A: The A01-01-02-019 was 4.08.

Q: And the A0101_01-01-003 (memory CD8+ T cells [1])?
A: The A0101_01-01-003 was 4.00.

Q: And the A0101_01-01-007 (memory CD8+ T cells [1])?
A: The A0101_01-01-007 was 1.55.

Q: And the A0101_01-01-009 (memory CD8+ T cells [1])?
A: The A0101_01-01-009 was 3.23.

Q: Which “# of patients enriching epitope >1.5 (moderate stringency)” value (memory CD8+ T cells [1]) does the source give for ACTDDNALAY here?
A: The value was 5.

Q: What about the “# of patients enriching epitope >5 (high stringency)” value (memory CD8+ T cells [1]) of the same sequence?
A: The value was 1.

Q: And the A01-01-01-030 (memory CD8+ T cells [1])?
A: Its A01-01-01-030 is 6.71.

Q: And the A01-01-02-019 (memory CD8+ T cells [1])?
A: The A01-01-02-019 was 4.08.

Q: And the A0101_01-01-003 (memory CD8+ T cells [1])?
A: Its A0101_01-01-003 is 4.00.

Q: What about the A0101_01-01-007 (memory CD8+ T cells [1]) of the same sequence?
A: The A0101_01-01-007 was 1.55.

Q: And the A0101_01-01-009 (memory CD8+ T cells [1])?
A: Its A0101_01-01-009 is 3.23.

Q: Which results are given for EIPRRNVATL?
A: # of patients enriching epitope >1.5 (moderate stringency) (memory CD8+ T cells [1]): 1; # of patients enriching epitope >5 (high stringency) (memory CD8+ T cells [1]): 0; enrichment of epitope in T-Scan screen, patient B07_01-01-022 (memory CD8+ T cells [1]): 0.13; enrichment of epitope in T-Scan screen, patient B0702_01-01-021 (memory CD8+ T cells [1]): 0.52; enrichment of epitope in T-Scan screen, patient B0702_01-01-030 (memory CD8+ T cells [1]): 1.26; enrichment of epitope in T-Scan screen, patient B0702_01-02-002 (memory CD8+ T cells [1]): 3.56; enrichment of epitope in T-Scan screen, patient B0702_01-02-004 (memory CD8+ T cells [1]): 0.80

Q: With STFKCYGVSPTK as the sequence, how does the “# of patients enriching epitope >1.5 (moderate stringency)” value (memory CD8+ T cells [1]) read?
A: The value was 5.

Q: What about the “# of patients enriching epitope >5 (high stringency)” value (memory CD8+ T cells [1]) of the same sequence?
A: The value was 3.

Q: What about the A03_01-01-006 (memory CD8+ T cells [1]) of the same sequence?
A: Its A03_01-01-006 is 12.94.

Q: What about the A03_01-01-008 (memory CD8+ T cells [1]) of the same sequence?
A: Its A03_01-01-008 is 9.24.

Q: And the A03_01-02-002 (memory CD8+ T cells [1])?
A: The A03_01-02-002 was 12.60.

Q: And the A03_01-02-004 (memory CD8+ T cells [1])?
A: Its A03_01-02-004 is 2.17.

Q: What about the A03_01-02-010 (memory CD8+ T cells [1]) of the same sequence?
A: Its A03_01-02-010 is 3.05.
